# Apparent affinities of Ab-14 variants for a coronavirus HR2 peptide

Antigen: PDVDLGDISGINAS, a 14-residue peptide of the SARS-CoV-2 spike HR2 region.

Ab-14 is the parent antibody, in scFv form: VH, then the linker GGGGSGGGGSGGGGS, then VL. The heavy chain is unchanged in all variants.
VH: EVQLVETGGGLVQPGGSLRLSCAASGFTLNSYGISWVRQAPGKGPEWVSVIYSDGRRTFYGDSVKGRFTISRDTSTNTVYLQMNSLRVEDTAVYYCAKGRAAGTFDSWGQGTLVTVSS
VL: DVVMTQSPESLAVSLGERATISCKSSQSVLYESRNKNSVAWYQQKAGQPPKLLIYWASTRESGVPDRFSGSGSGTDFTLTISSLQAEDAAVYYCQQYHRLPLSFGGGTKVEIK

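Phage display of a naive human antibody library on the peptide gave the parent. This is the validation round: designs drawn from the data on random variants, tested in the same kind of assay. Several design methods are mixed in this list. Affinity was read by AlphaSeq, a pooled yeast mating assay with surface-displayed partners. After mating in shaken culture at 30 °C for 16 h, diploids were selected and their barcode pairs sequenced. Scores were corrected for input abundance and mapped to Kd with protein pairs of known affinity run in the same pool. There are six technical replicates.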

Sequences are complete VL domains. This list holds designs with at most six substitutions. Kd is apparent (estimated from mating counts) and averaged on the log scale over replicates with a signal. Smaller is tighter. "nd" means that the variant was in the library but no mating with the target was seen in any replicate; the authors take this as a sign of poor binding, and no number exists. Of ten entries with the parent sequence, four were seen in most replicates (averages 2.2 nM to 240 nM), three in one and three in none, so single entries are noisy.

The variant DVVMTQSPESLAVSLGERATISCKSQQSVLYENRNKNSVAWYQQKAGQPPKLLIYWRSTREVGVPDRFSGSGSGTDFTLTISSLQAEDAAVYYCQQYHRLPLSFGGGTKVEIK showed 110 nM (1 of 6 replicates). The variant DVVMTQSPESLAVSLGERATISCKVSESNLYESRNKNSVAWYQQKAGQPPKLLIYNASTRESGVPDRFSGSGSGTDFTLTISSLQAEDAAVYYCQQYHRLPLSFGGGTKVEIK showed 920 pM (6 of 6 replicates). The variant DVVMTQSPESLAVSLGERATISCKSSQSHLYESGNKNSVAWYQQKAGQPPKLLIYHASTRESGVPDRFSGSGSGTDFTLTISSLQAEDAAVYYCQQYHRLPLSFGGGTKVEIK gave 6.8 nM (6 of 6 replicates). With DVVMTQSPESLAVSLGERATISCKSSQAVLYESRNKNSVAWYQQKAGQPPKLLIYWASTREDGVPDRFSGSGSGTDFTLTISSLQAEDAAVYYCQQYMRLPLSFGGGTKVEIK the result was 2.9 nM (6 of 6 replicates). With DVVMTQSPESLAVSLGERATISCKFNQSLLYESRNKNSVAWYQQKAGQPPKLLIYNADTRESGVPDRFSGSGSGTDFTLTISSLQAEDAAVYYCQQYHRLPLSFGGGTKVEIK the result was 590 pM (6 of 6 replicates). With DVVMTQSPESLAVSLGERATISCKTSQSVEYESRNKNSVAWYQQKAGQPPKLLIYWASTRESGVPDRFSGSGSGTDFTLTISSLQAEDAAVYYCPQYHRLPLSFGGGTKVEIK the result was nd (0 of 6 replicates). For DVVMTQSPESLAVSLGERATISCKSSQSVLYESRNKNSVAWYQQKAGQPPKLLIYWASTREEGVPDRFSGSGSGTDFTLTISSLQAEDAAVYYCQQYHRLPLSFGGGTKVEIK, the assay gave nd (0 of 6 replicates). For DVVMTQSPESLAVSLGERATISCKSSQSWLYESRNKNSVAWYQQKAGQPPKLLIYNADTRESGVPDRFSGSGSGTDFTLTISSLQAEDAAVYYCQQYHRLPLSFGGGTKVEIK, the assay gave nd (0 of 6 replicates). With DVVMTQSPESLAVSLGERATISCKLSQSVEYESRNKNSVAWYQQKAGQPPKLLIYSASTRESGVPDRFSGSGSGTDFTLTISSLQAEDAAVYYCQQYHRLPLSFGGGTKVEIK the result was 730 pM (6 of 6 replicates).

With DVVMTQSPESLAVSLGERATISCKFSKSVLFESRNKNSVAWYQQKAGQPPKLLIYNASTRESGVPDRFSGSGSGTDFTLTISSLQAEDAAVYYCQQYHRLPLSFGGGTKVEIK the result was 440 pM (6 of 6 replicates). For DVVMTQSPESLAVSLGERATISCKLEESVLYESRNKNSVAWYQQKAGQPPKLLIYNASTRESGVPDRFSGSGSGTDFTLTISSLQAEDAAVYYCQQYHRLPLSFGGGTKVEIK, the assay gave 720 pM (6 of 6 replicates). The variant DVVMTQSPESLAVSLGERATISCKTSQSVLYESRNKNSVAWYQQKAGQPPKLLIYDASTRAYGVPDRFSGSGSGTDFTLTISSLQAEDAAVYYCQQYHRLPLSFGGGTKVEIK showed 5.1 nM (6 of 6 replicates). The variant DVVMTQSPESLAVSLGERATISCKFEQSELYESRNKNSVAWYQQKAGQPPKLLIYNASTRMSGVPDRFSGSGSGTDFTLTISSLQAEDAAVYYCQQYHRLPLSFGGGTKVEIK showed 390 pM (6 of 6 replicates). For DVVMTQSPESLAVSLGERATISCKLRQSTWYESRNQNSVAWYQQKAGQPPKLLIYWASTRESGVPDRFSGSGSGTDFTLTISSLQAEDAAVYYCQQYHRLPLSFGGGTKVEIK, the assay gave 3.7 nM (6 of 6 replicates). The variant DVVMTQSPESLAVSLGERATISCKLQQSVLYESRMKNSVAWYQQKAGQPPKLLIYNASTRLSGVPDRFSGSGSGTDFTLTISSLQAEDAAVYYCQQYHRLPLSFGGGTKVEIK showed 1.5 nM (6 of 6 replicates). The variant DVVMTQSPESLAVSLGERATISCKMSQSELYEDRNKNSVAWYQQKAGQPPKLLIYNASQRESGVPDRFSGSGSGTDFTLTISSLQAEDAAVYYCQQYHRLPLSFGGGTKVEIK gave 380 pM (6 of 6 replicates). For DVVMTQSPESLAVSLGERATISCKLSQSELYESRMKNSVAWYQQKAGQPPKLLIYNASQREQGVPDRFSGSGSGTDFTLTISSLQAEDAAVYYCQQYHRLPLSFGGGTKVEIK, the assay gave 870 pM (6 of 6 replicates). The variant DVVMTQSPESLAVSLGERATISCIISQSMLYESRNKNSVAWYQQKAGQPPKLLIYNASTRWSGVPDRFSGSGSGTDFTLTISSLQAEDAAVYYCQQYHRLPLSFGGGTKVEIK gave 2.9 nM (6 of 6 replicates).

The variant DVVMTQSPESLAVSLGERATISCKLSQSVLYEERNKNSVAWYQQKAGQPPKLLIYHASTRLSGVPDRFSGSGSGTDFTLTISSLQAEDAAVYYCQQYHRLPLSFGGGTKVEIK gave 510 pM (6 of 6 replicates). The variant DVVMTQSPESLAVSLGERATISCKLEQSDPYESRNKNSVAWYQQKAGQPPKLLIYNASTRESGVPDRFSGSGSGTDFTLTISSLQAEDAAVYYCQQYHRLPLSFGGGTKVEIK showed 690 pM (6 of 6 replicates). The variant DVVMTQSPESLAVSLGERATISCKLQQSVLYQSRNKNSVAWYQQKAGQPPKLLIYNASTRESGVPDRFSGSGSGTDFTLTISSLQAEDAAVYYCQQYHRLPLSFGGGTKVEIK gave 760 pM (6 of 6 replicates).

The 3 strongest on average among those seen in every replicate, once more:

VL	apparent Kd	seen in
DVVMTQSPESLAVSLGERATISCKMSQSELYEDRNKNSVAWYQQKAGQPPKLLIYNASQRESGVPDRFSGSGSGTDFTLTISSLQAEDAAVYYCQQYHRLPLSFGGGTKVEIK	380 pM	6 of 6
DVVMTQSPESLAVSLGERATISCKFEQSELYESRNKNSVAWYQQKAGQPPKLLIYNASTRMSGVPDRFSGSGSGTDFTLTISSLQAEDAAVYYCQQYHRLPLSFGGGTKVEIK	390 pM	6 of 6
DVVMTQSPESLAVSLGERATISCKFSKSVLFESRNKNSVAWYQQKAGQPPKLLIYNASTRESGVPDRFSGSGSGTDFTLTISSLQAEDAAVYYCQQYHRLPLSFGGGTKVEIK	440 pM	6 of 6

As a blank, each scFv also met three strains without target: over all light chain designs, 4% of these pairings were detected, typically at 430 nM and seldom below 38 nM. A sequence measured in both rounds can read differently, since the two assays cover different ranges. In the paper, a design with two or fewer of six values counts as a poor binder.

Source: Li et al. 2023 (doi:10.1038/s41467-023-39022-2), MIT Lincoln Laboratory and A-Alpha Bio; data file from the FLAb repository.